Laboratory results as given in patent US5317086A, “Cysteine proteinase inhibitors and inhibitor precursors” (The Regents of the University of California, priority 1992, dated 1994).

Sequences of proteins named here, by UniProt entry; tags and fusion partners are left off. Residues count along the entry.
UniProt P00784, 134-345 limits assumed: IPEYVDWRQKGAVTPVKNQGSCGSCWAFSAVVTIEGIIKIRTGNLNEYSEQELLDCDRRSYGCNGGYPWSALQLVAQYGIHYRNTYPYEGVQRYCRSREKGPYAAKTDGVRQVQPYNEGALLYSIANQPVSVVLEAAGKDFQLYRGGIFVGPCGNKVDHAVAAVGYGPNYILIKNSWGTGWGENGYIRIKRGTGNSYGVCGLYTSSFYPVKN

Tests used:
papain [1] = target: T1, papain (Carica papaya, UniProt P00784); assay: Irreversible inhibition of papain (preincubation and 3000-fold dilution assay)
Procedure: Papain (Sigma, 2x recrystallized) (1 mg/mL) was activated at 25° C. for 30 min prior to use in a solution of 0.1mM EDTA, 0.5 mM L-cysteine hydrochloride, and 0.06 mM mercaptoethanol, and was then diluted (20 μL to 1.0 mL) and stored at 4° C. for use in the assays. The cysteine and mercaptoethanol buffers were prepared fresh daily. The standard assay conditions consisted of 50 mM phosphate, 0.2 M NaCl, 5 mM EDTA, 2 mM dithiothreitol (DTT), 0.2% bovine serum albumin (BSA) and 20% CH3 CN, pH 6.5. […] Kinetic measurements were performed by monitoring the fluorescence of 7-amino-4-methylcoumarin (MCA) [1 (excitation) 350 nm, 1 (emission) 460 nm] released upon hydrolysis of the substrate, CbzPheArgMCA. […] The Km was determined in duplicate runs by fitting rate vs. [S] using the program ENZFITTER. […]
As illustrated by FIG. 1, evidence of irreversible inhibition was seen when the inhibitor was incubated with papain and diluted 3000-fold (to 7 nM) into a buffered solution of substrate, with slow but incomplete pseudo-first order deactivation of papain (25% loss of papain activity over 3.5 hr, diamond symbol in the graph). […] The dilution assay also provided evidence that the inhibition measured in the reversible assay was not due to trace amounts of aldehyde contamination. […]

[2] = Acetoxysulfide inhibitor hydrolysis to aldehyde in buffer
Procedure: The hydrolysis of the acetoxysulfide inhibitor to its aldehyde form was monitored by incubation of the inhibitor (2 μM) in the buffer/20% CH3 CN solution. Aliquots were removed and the extent of inhibition was determined by addition of substrate (100 μM) and followed by addition of enzyme. […] At micromolar concentrations of the aldehyde (Ki>3 nM), one would expect to observe this eventual complete inhibition of papain.
A mixture of the inhibitor (2.0 μM) in buffer with 20% CH3 CN was maintained in the 25° C. bath, and 970 μL aliquots were removed at periodic intervals. Substrate (100 μM) and enzyme (prepared as described above under Assays) were added, and substrate hydrolYsis was monitored. The remaining enzyme activity was determined by collecting fluorescence vs time data for ≤15% of the reaction, and a straight line was fitted to the linear portion of the data to give the rate of substrate hydrolysis. Rate vs. time data were plotted to determine the half life of the acetoxysulfide in solution.

papain [3] = target: T1, papain; assay: Competitive, reversible inhibition of papain (fluorescence, CbzPheArgMCA substrate)
Procedure: Fluorescence assays of papain were conducted on a Photon Technology International Alphascan fluorimeter. A Brinkmann RM20 Lauda water bath was used to maintain solutions and the cell compartment of the fluorimeter at constant temperature. All buffer solutions were prepared with doubly distilled H2 O and filtered through Millipore 0.45-mm filters.
Papain (Sigma, 2x recrystallized) (1 mg/mL) was activated at 25° C. for 30 min prior to use in a solution of 0.1mM EDTA, 0.5 mM L-cysteine hydrochloride, and 0.06 mM mercaptoethanol, and was then diluted (20 μL to 1.0 mL) and stored at 4° C. for use in the assays. The cysteine and mercaptoethanol buffers were prepared fresh daily. The standard assay conditions consisted of 50 mM phosphate, 0.2 M NaCl, 5 mM EDTA, 2 mM dithiothreitol (DTT), 0.2% bovine serum albumin (BSA) and 20% CH3 CN, pH 6.5. However, these concentrations were obtained by dilution of a buffer of 100 mM phosphate, 0.4 M NaCl, 10 mM EDTA, 4 mM DTT at pH 6.5 to a final volume of 1 mL with the necessary amounts of CH3 CN and H2 O. The DTT and BSA were added fresh daily to the phosphate buffer. Kinetic measurements were performed by monitoring the fluorescence of 7-amino-4-methylcoumarin (MCA) [1 (excitation) 350 nm, 1 (emission) 460 nm] released upon hydrolysis of the substrate, CbzPheArgMCA. Assays were conducted by charging a quartz cuvette with the appropriate amount of substrate solution, variable inhibitor in CH3 CN, and the reaction was initiated by addition of papain to the sample cuvette. […] The Km was determined in duplicate runs by fitting rate vs. [S] using the program ENZFITTER.
For the acetoxysulfide inhibitor, the concentration was varied from 50 μM to 0.10 μM at [S]=0.1 mM (1.3 Km). For the aldehyde, the parent dimethyl acetal was hydrolyzed in 0.3% HCl for 18 hr prior to assay, and concentration of aldehyde was varied from 262 nM to 0.262 nM. Fluorescence vs time data were collected for ≤15% of the reaction, and a straight line was fitted to the linear portion of the data. […]

[4] = Storage stability of solid; assay type: physicochemical; settings: crystalline solids, freezer

| SMILES | irreversible inhibition of papain (in words) (papain [1]; incubated with papain, diluted 3000-fold (to 7 nM) into buffered substrate, FIG. 1) | loss of papain activity (papain [1]; inhibitor 0.020 μM (7Ki) incubated with papain, diluted 3000-fold (to), over 3.5 hr, 25° C.) | t1/2 for the conversion of acetoxysulfide to aldehyde ([2]; 2 μM in buffer/20% CH3CN, 25° C., average of duplicate runs) | hydrolysis half-life ([2]; pH 7, forms the aldehyde derivative) | Ki (papain [3]; read-out: Ki as competitive, reversible inhibitor of papain, mixture of diastereomers, [S]=0.1 mM (1.3 Km), pH 6.5, 20% CH3CN) | storage stability (in words) [4] | inhibition of the cysteine protease papain (in words) (papain [3]) | Ki (papain [3]; read-out: Ki of the aldehyde against papain, aldehyde form of the acetoxysulfide) |
| --- | --- | --- | --- | --- | --- | --- | --- | --- |
| COC(=O)CCC(=O)N[C@@H](Cc1ccccc1)C(=O)N[C@@H](C)C(OC(C)=O)SCCC(C)C (some centres unmarked) | slow but incomplete pseudo-first order deactivation of papain | 25% | approx. 60 min | about one | 3000 nM | stable during prolonged storage in a freezer |  |  |
| COC(=O)CCC(=O)N[C@@H](Cc1ccccc1)C(=O)N[C@@H](C)C=O |  |  |  |  |  |  | potent inhibitor | > 3 nM |

Read-outs that look alike come from different tables or passages of the source.
